Literature values as cited in publication PMC11505911, “Design and Synthesis of Small Molecule Probes of MDA-9/Syntenin” (Biomolecules, 2024).

Target: T1, MDA-9/Syntenin (Homo sapiens, UniProt O00560)
T1 construct: made in house
T1 sequence (O00560 1-298): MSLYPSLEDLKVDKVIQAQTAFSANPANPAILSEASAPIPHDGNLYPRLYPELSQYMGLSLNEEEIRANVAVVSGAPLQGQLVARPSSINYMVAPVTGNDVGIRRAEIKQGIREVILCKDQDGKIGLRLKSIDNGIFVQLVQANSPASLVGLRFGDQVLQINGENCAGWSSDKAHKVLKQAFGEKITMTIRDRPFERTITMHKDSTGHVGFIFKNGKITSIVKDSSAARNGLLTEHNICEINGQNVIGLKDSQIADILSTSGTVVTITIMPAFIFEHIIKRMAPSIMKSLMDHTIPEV
Set-up: method as in printed
Details: pre-PDZ1i molecules studied en route to the discovery of PDZ1i; ref not given; cited from earlier work

For `O=C(Nc1cc(Cl)c(O)c(Cl)c1)c1nc2[nH]c3c(c(=O)n2n1)CCC3` [112F11], the IC50 is listed as 71.8 µM.
